Test results taken from PMC6523382 (Pharmaceutics, 2019).

Molecular target: T1, MATE1 (Homo sapiens, UniProt Q96FL8)
T1 sequence (Q96FL8 1-570): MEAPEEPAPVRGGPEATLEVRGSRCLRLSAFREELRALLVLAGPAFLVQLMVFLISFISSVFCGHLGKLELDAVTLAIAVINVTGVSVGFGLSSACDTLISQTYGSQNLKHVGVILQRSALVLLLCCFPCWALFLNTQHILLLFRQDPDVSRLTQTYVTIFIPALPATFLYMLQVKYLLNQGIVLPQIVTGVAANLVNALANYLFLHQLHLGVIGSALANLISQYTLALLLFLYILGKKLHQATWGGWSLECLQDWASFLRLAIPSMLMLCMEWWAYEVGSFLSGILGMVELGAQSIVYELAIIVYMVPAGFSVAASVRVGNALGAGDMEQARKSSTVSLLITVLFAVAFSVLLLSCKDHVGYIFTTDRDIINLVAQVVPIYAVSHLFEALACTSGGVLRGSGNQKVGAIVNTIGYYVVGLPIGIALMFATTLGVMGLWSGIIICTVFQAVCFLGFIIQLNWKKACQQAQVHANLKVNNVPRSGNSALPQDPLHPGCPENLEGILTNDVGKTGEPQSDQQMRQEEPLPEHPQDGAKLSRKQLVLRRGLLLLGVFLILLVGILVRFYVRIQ
Experiment: Inhibition of MATE1-mediated [14C]metformin uptake in HEK293-MATE1 cells
Format: cell-based
Design: host or cells: HEK293
Description: HEK293 cells overexpressing OCT1, OCT2, MATE1, and MATE2-K (HEK293-OCT1, -OCT2, MATE1, and MATE2-K, respectively; Corning, Tewksbury, MA, USA) were used and characterized as previously described. […] In HEK293-MATE1 or -MATE2-K cells, 2 mM sodium butyrate was also supplemented in the culture medium. […] Sigma, St. Louis, MO, USA) and incubated for 30 min in HBSS. In HEK293-MATE1, or -MATE2-K cells, 40 mM ammonium chloride was also added for the outwardly directed proton gradient. […] After the 5 min incubation, cells were washed three times with 200 µL of ice-cold HBSS immediately after placing the plates on ice. Then, the cells were lysed with 10% sodium dodecyl sulfate (SDS) and the cell lysates were mixed with Optiphase cocktail solution. Thereafter, the radioactivity of the cell lysates was measured using a liquid scintillation counter (Microbeta 2, Perkin Elmer Inc., Boston, MA, USA).

## CN/C(=N/CCSCc1nc[nH]c1C)NC#N [cimetidine]
  IC50: 550 nM
